Only some compounds are listed: those with a hit (about 16% of all), similar ones and a draw of the others.
DT40 TDP1 no CPT – qHTS for Inhibitors of human tyrosyl-DNA phosphodiesterase 1 (TDP1): qHTS in cells in absence of CPT | actives 15% (n = 420,000) | DT40 Tdp1-/- hTDP1 cells, no CPT, ATP luminescence, 48 h | Potency, µM (titrated, usually from 46.2 µM), for the others: at the highest dose activity change, negative = growth inhibition, actives largely listed as inhibitors; further: potency means the concentration at half of the fitted maximal effect; on the % scale 0 is the no-effect control and ±100 the full control effect; nearly all actives have a fitted effect of over 55% in size
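Chicken DT40 Tdp1-/- cells complemented with human TDP1, screened without camptothecin (DMSO vehicle only), 400 cells/well. Compounds pin-transferred, cells incubated at 37 °C for at least 48 hr. Growth read as ATP-dependent luminescence (CellTiter-Glo, 30 min at RT).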
TDP1 inh – TDP1 (human) enzyme inhibition | AID 485290 | actives 0.28% (n = 350,000) | Potency, µM (doses to about 130 µM), for the others: at the top dose activity change, negative = inhibition, most hits filed as inhibitors | recombinant TDP1, AlphaScreen DNA substrate cleavage; further: potency means the concentration at half of the fitted maximal effect; on the % scale 0 is the no-effect control and ±100 the full control effect; nearly all actives have a fitted effect of over 40% in size
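Compounds were preincubated with Tdp1 (1 nM final) for 15 min at room temperature before substrate (15 nM final) started a 5 min reaction; beads (10 ug/ml final) were then added for 10 min before AlphaScreen detection.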
uPA generation – blocks generation of uPA at the cell surface | cell surface uPA generation assay, qHTS | Potency, µM (highest dose often 38.3 µM), without a hit: at the top dose activity change, negative = inhibition, most hits filed as inhibitors | actives 0.31% (n = 330,000); active means well fitted inhibition curve with a large enough effect; inconclusive means small, poorly fitted or top-dose-only effect; inactive means no such curve, though single readings can be large or run the other way; tested in mouse RAW 264.7 cells; further: potency means the concentration at half of the fitted maximal effect; on the % scale 0 is the no-effect control and ±100 the full control effect; nearly all actives have a fitted effect of over 55% in size
TDP1 cell CPT – growth inhibition of DT40 Tdp1-/-;hTDP1 cells with camptothecin (screen for TDP1 inhibitors); chicken DT40 Tdp1-/-;hTDP1 cells + 20 nM CPT, ATP luminescence, 48 h; Potency, µM (top dose mostly 46.2 µM), inactives show at the top dose activity change, negative = growth inhibition, usual class: inhibitors; actives 12% (n = 420,000); further: potency means the concentration at half of the fitted maximal effect; on the % scale 0 is the no-effect control and ±100 the full control effect; nearly all actives have a fitted effect of over 55% in size
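Chicken DT40 Tdp1-/- cells stably complemented with human TDP1 were seeded at 400 cells/well in medium containing 20 nM camptothecin, exposed to pin-transferred compounds, and grown at 37 °C for at least 48 hr. Viability was read as ATP luminescence.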
miR-21 reporter – miR-21 reporter, rising signal; Potency, µM (doses to about 38.3 µM), without a hit: at the top dose reporter change, positive = more light; HeLa miR-21 FLuc reporter, luciferase, 48 h; 340,000 tested, under 10 active; active = well fitted rising curve with a large enough effect; inconclusive = small, poorly fitted or top-dose-only effect; inactive = no such curve, though single readings can be large or run the other way;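 further: % of control where 0% means no effect; miR-21 action dims this reporter so a rising signal means less miR-21 action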
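HeLa cells stably expressing CMV-driven firefly luciferase with a downstream miR-21 binding sequence, endogenously expressing miR-21, were treated with titrations (up to about 40uM final) for 48 hours at 37 degree Celsius. Luciferase luminescence was read after lysis.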
* hit, by the source's call. Unless noted, the call rests on the fitted dose curve; in most records, active means well fitted curve in the direction sought with a large enough effect; inconclusive means small, poorly fitted or top-dose-only effect, or another doubt; inactive means no such curve, though single readings can be large; an effect the other way counts as inactive or inconclusive.

CCOc1cc(S(=O)(=O)Nc2cc(C)cc(C)c2)ccc1Cl was read as DT40 TDP1 no CPT 16.4µM*, TDP1 inh 0.0%, TDP1 cell CPT 16.4µM* and miR-21 reporter 15.4%.
`COc1ccc(/C=N/NC(=O)CN(CCc2ccccc2)S(=O)(=O)c2ccc(NC(C)=O)cc2)cc1OC` gave DT40 TDP1 no CPT inconclusive, TDP1 inh -1.2%, uPA generation -8.6%, TDP1 cell CPT inconclusive and miR-21 reporter -24.8%.
CC(C)OP(=O)(OC(C)C)C(NC(=O)c1cccc([N+](=O)[O-])c1)C(N)=O (stereo not drawn) was read as DT40 TDP1 no CPT -1.0%, TDP1 inh 1.4%, uPA generation -0.4%, TDP1 cell CPT -6.1% and miR-21 reporter -13.3%.
For CCC1CC=CC2C1C(=O)N(Cc1ccccc1)C2c1cc(C)ccc1F (stereo not drawn) the results were TDP1 inh -1.5%.
Screening CCOc1ccc(NS(=O)(=O)c2ccc(C(=O)NCc3ccncc3)cc2)cc1 returned DT40 TDP1 no CPT 13µM*, uPA generation 0.9% and TDP1 cell CPT inconclusive.
CCCCCCNC(=O)CCCCCNS(=O)(=O)c1ccc(OC)cc1 was read as DT40 TDP1 no CPT inconclusive, TDP1 inh 2.6%, uPA generation 8.0%, TDP1 cell CPT 18.4µM* and miR-21 reporter -4.8%.
Screening CCOc1ccc(S(=O)(=O)NCc2ccncc2)cc1 returned DT40 TDP1 no CPT 0.517µM*, TDP1 inh -3.9%, uPA generation -10.4%, TDP1 cell CPT 0.461µM* and miR-21 reporter 21.8%.
`Cc1ccc(S(=O)(=O)NCc2ccncc2)cc1` gave DT40 TDP1 no CPT 3.66µM*, TDP1 inh 0.0%, uPA generation -8.5%, TDP1 cell CPT 4.11µM* and miR-21 reporter 13.4%.
`CN(C)CCn1c(=O)n(C2CCCCC2)c(=O)c2c3c(sc21)CCCCC3` gave DT40 TDP1 no CPT inconclusive, uPA generation -4.0% and TDP1 cell CPT -4.7%.
Screening COc1ccc(NC(=O)/C(=C/c2cccnc2)NC(=O)c2cccs2)cc1 returned DT40 TDP1 no CPT -11.8%, TDP1 inh 3.0%, uPA generation -1.7%, TDP1 cell CPT 3.5% and miR-21 reporter 1.0%.
`CC(=O)Nc1ccc(S(=O)(=O)NCc2ccncc2)cc1` gave DT40 TDP1 no CPT 9.2µM*, TDP1 inh 2.4%, uPA generation -2.1%, TDP1 cell CPT 9.2µM* and miR-21 reporter 4.4%.
`Cc1ccc(S(=O)(=O)NCCCNS(=O)(=O)c2ccccc2)cc1` gave DT40 TDP1 no CPT -16.4%, uPA generation 18.3%, TDP1 cell CPT -6.7% and miR-21 reporter 5.0%.
Cc1ccc(S(=O)(=O)NCCCCCCNS(=O)(=O)c2ccc(C)cc2)cc1 was read as DT40 TDP1 no CPT 23.1µM* and TDP1 cell CPT inconclusive.
`Cc1ccc(NC(=O)Cn2nc(C(F)(F)F)c3c2CCC3)cc1C` gave DT40 TDP1 no CPT inconclusive, TDP1 inh -4.2%, TDP1 cell CPT inconclusive and miR-21 reporter -4.2%.
For COCCNc1ncnc2c1ncn2[C@H]1CN(Cc2ccccc2)C[C@@H](CO)O1 the results were DT40 TDP1 no CPT 8.7% and TDP1 cell CPT -10.4%.
Screening O=C(NC12CC3CC(CC(C3)C1)C2)N(Cc1ccccc1)Cc1ccncc1 returned DT40 TDP1 no CPT 18.4µM*, TDP1 inh 2.7%, uPA generation -13.3%, TDP1 cell CPT 13µM* and miR-21 reporter -16.5%.
`COCCCN(C(=O)c1ccco1)c1nc(-c2ccc(OC)cc2)cs1` gave DT40 TDP1 no CPT 20.6µM*, TDP1 inh 3.9%, uPA generation -6.2%, TDP1 cell CPT 16.4µM* and miR-21 reporter -8.5%.
`CCN(CC)CCN(C(=O)c1ccco1)c1nc2c(C)c(C)ccc2s1` gave DT40 TDP1 no CPT 20.6µM*, TDP1 inh -1.2%, TDP1 cell CPT 23.1µM* and miR-21 reporter -17.2%.
COCCCN(C(=O)c1ccccc1)c1nc(-c2ccc(OC)cc2)cs1 was read as DT40 TDP1 no CPT 16.4µM*, TDP1 inh 0.9%, uPA generation -2.4%, TDP1 cell CPT 18.4µM* and miR-21 reporter -6.2%.
Screening CCN(C(=O)c1ccco1)c1nc(CC(=O)Nc2ccc(Cl)cc2)cs1 returned DT40 TDP1 no CPT 16.4µM*, TDP1 inh 4.1%, uPA generation 6.7%, TDP1 cell CPT inconclusive and miR-21 reporter -14.7%.

Next section, overlapping the part above by two compounds.
COCCCN(C(=O)c1ccccc1)c1nc(-c2ccc(OC)cc2)cs1 was read as DT40 TDP1 no CPT 16.4µM*, TDP1 inh 0.9%, uPA generation -2.4%, TDP1 cell CPT 18.4µM* and miR-21 reporter -6.2%.
Screening CCN(C(=O)c1ccco1)c1nc(CC(=O)Nc2ccc(Cl)cc2)cs1 returned DT40 TDP1 no CPT 16.4µM*, TDP1 inh 4.1%, uPA generation 6.7%, TDP1 cell CPT inconclusive and miR-21 reporter -14.7%.
For Cc1ccc2sc(N(CCCN(C)C)C(=O)c3ccco3)nc2c1C the results were DT40 TDP1 no CPT inconclusive, TDP1 inh 6.2%, TDP1 cell CPT inconclusive and miR-21 reporter 2.5%.
CC(C)(C)C(=O)Nc1nnc(CC(=O)NCc2ccccc2)s1 was read as DT40 TDP1 no CPT -14.2%, TDP1 inh 0.6%, uPA generation 3.1%, TDP1 cell CPT -14.2% and miR-21 reporter 2.8%.
`CCCc1nc2c(nnn2Cc2ccccc2Cl)c(=O)[nH]1` gave DT40 TDP1 no CPT 0.5%, TDP1 inh -2.3%, uPA generation 7.0%, TDP1 cell CPT -7.2% and miR-21 reporter -3.2%.
Screening CN(C(=O)c1ccco1)c1nc(-c2ccc(F)cc2)cs1 returned DT40 TDP1 no CPT -14.8%, uPA generation 2.5%, TDP1 cell CPT 9.4% and miR-21 reporter -55.9%.
For CCN(CC)CCCN(C(=O)c1ccco1)c1nc(-c2ccc(C)cc2)cs1 the results were DT40 TDP1 no CPT inconclusive, TDP1 inh 1.2%, uPA generation -7.6%, TDP1 cell CPT 18.4µM* and miR-21 reporter -6.3%.
`O=C(c1ccco1)N(CCCN1CCOCC1)c1nc(-c2ccc(F)cc2)cs1` gave DT40 TDP1 no CPT 15.8µM*, TDP1 inh 9.8%, uPA generation 6.1%, TDP1 cell CPT 23.1µM* and miR-21 reporter 18.1%.
For Cc1ccc(-c2nc3cnccn3c2Nc2ccc(C(C)C)cc2)o1 the results were DT40 TDP1 no CPT 10µM*, TDP1 inh 2.6% and TDP1 cell CPT inconclusive.
`Cc1ccc(-c2nc3cnccn3c2Nc2c(C)cccc2C)o1` gave DT40 TDP1 no CPT 10.3µM*, TDP1 inh 2.5%, uPA generation inconclusive, TDP1 cell CPT 5.8µM* and miR-21 reporter -7.8%.
For Cc1ccn2c(Nc3ccc(C(C)C)cc3)c(-c3cccnc3)nc2c1 the results were DT40 TDP1 no CPT inconclusive, TDP1 inh 0.0%, TDP1 cell CPT inconclusive and miR-21 reporter inconclusive.
Screening O=C(CSc1ccccn1)N1CCOCC1 returned DT40 TDP1 no CPT -20.6%, TDP1 inh 6.3%, uPA generation 0.1%, TDP1 cell CPT -4.2% and miR-21 reporter -7.9%.
CN1CCN(C(=O)Cn2c(-c3cccs3)cc3cc(Cl)ccc32)CC1 was read as DT40 TDP1 no CPT 23.1µM*, TDP1 inh 3.7%, TDP1 cell CPT inconclusive and miR-21 reporter -2.1%.

Two consecutive records out of the list so far, for reference:
Screening O=C(CSc1ccccn1)N1CCOCC1 returned DT40 TDP1 no CPT -20.6%, TDP1 inh 6.3%, uPA generation 0.1%, TDP1 cell CPT -4.2% and miR-21 reporter -7.9%.
CN1CCN(C(=O)Cn2c(-c3cccs3)cc3cc(Cl)ccc32)CC1 was read as DT40 TDP1 no CPT 23.1µM*, TDP1 inh 3.7%, TDP1 cell CPT inconclusive and miR-21 reporter -2.1%.
